From patent US12692529B2, “Quantitative screen for the assessment of inter-individual variability in drug metabolism by the human gut microbiome” (The Trustees of Princeton University, priority 2020, dated 2026)

Test system: ex vivo cultures of donor gut microbiome (BG medium)

Compound	MDM in metabolite production across donors
CCCCC(C)(O)C/C=C/[C@H]1[C@H](O)CC(=O)[C@@H]1CCCCCCC(=O)OC (mixture of isomers) [misoprostol]	variable
C[C@]12CCC(=O)C=C1CC[C@@H]1[C@@H]2[C@@H](O)C[C@@]2(C)[C@H]1CC[C@]2(O)C(=O)CO [hydrocortisone]	variable
Cc1nc2n(c(=O)c1CCN1CCC(c3noc4cc(F)ccc34)CC1)CCCC2 [risperidone]	consistently positive
